# AlphaSeq binding of Ab-95 light chain variants to a spike HR2 peptide

Source: Engelhart et al. 2022 (doi:10.1038/s41597-022-01779-4), MIT Lincoln Laboratory and A-Alpha Bio; data file from the FLAb repository.

The target is the same throughout: PDVDLGDISGINAS, from the HR2 region of SARS-CoV-2 spike.

Parent: Ab-95, a human scFv built as VH, three GGGGS repeats, VL. Only the CDRs of the light chain vary.
VH: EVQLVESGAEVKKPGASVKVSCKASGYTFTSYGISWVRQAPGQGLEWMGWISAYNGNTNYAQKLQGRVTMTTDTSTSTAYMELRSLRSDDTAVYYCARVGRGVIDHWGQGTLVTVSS
VL: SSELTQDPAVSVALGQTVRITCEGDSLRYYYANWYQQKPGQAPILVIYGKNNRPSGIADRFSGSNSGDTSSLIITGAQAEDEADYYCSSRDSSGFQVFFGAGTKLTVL

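Phage display of a naive human antibody library on the peptide gave the parent. The library (AAYL52) carries one to three amino acid substitutions per variant, with no insertions or deletions. Affinity was read by AlphaSeq, a pooled yeast mating assay with surface-displayed partners. Mating (16 h, 30 °C) was followed by selection of diploids and sequencing of their barcodes. Scores were corrected for input abundance and mapped to Kd with protein pairs of known affinity run in the same pool. The assay was run in three technical replicates.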

Changes read parent residue, position, new residue, counted from the first residue of the VL shown. Kd is apparent (estimated from mating counts) and averaged on the log scale over replicates with a signal. Smaller is tighter. Where no diploid with the target was found in any replicate, the entry reads "no signal": below detection, most likely a poor binder, though not proof of it. Three control strains display no target. For library AAYL52, 28% of the pairings with them gave a signal, with a median of 8.2 µM and one signal in twenty below 800 nM, so weak values seen in few replicates may be background.

changes,Kd (apparent),seen in
S26G+A32V+N52V,2.2 µM,3 of 3
S26P+A32G+G49A,no signal,0 of 3
N33S+N52K+S93N,no signal,0 of 3
L27E+Y29S+G94V,no signal,0 of 3
E23F+Y31C+K50Y,2.5 µM,3 of 3
R28E+Y31S+S93I,44 µM,3 of 3
L27N+K50R+S93E,1.1 µM,3 of 3
N51V+P54H+S89M,4.4 µM,1 of 3
R28D+S55M+Q96P,7.2 µM,3 of 3
S26C+S55D+V97Q,8.9 µM,1 of 3
S26I+R28M+Q96D,9.2 µM,1 of 3
E23T+D25V,200 nM,3 of 3
G49D+K50C+S92M,no signal,0 of 3
E23D+P54T+F98A,8.5 µM,2 of 3
Y29D+N33Y+D91H,7.3 µM,1 of 3
N33C+R53A+P54G,35 µM,1 of 3
L27A+G49S+Q96G,no signal,0 of 3
K50H+S93M+V97D,1.4 µM,3 of 3
G24C+N51I+N52W,21 µM,2 of 3
N52R+S55C+D91Y,7.5 µM,3 of 3
E23G+S55L+V97C,53 µM,2 of 3
N33D+R53T+V97Q,35 µM,1 of 3
G49Y+N52I+V97F,12 µM,1 of 3
D25L+R90I+S92F,1.9 µM,2 of 3
G24E+Y30I+S89F,88 µM,2 of 3
G24Y+S26E+Y29V,710 nM,3 of 3
Y31T+A32K+K50A,1.4 µM,3 of 3
G49K+R90L+F95R,no signal,0 of 3
K50S+R53E+G94K,no signal,0 of 3
E23C+Y29F+S92A,240 nM,3 of 3
D25G+N33K+R53K,16 µM,3 of 3
E23G+S89C+R90E,41 µM,1 of 3
D25Q+Y29P+Y31P,52 nM,3 of 3
S26M+A32T,no signal,0 of 3
Y29S+S93Y,1.0 µM,1 of 3
Y29A+N33V+S89R,46 µM,1 of 3
G49D+D91M,38 µM,1 of 3
A32E+G94Y+F95E,6.2 µM,1 of 3
Y29F+R53F+G94Y,170 µM,1 of 3
G24E+Y29N+S55D,14 µM,3 of 3
Y29D+G49I+G94H,26 µM,1 of 3
Y29R+R53A+D91L,2.2 µM,1 of 3
D25Q+K50M+Q96G,4.7 µM,3 of 3
S55C+Q96L+F98H,20 µM,1 of 3
P54N+Q96P+V97L,510 nM,3 of 3
G24T+R53A+Q96H,1.2 µM,3 of 3
Y29P+K50E,200 nM,3 of 3
R28Q+S92G+F98C,350 nM,3 of 3
Y29D+Q96F+F98S,510 nM,3 of 3
E23P+N52S+S89M,13 µM,3 of 3
R28E+K50G+S93F,610 nM,3 of 3
Y29P+K50H+S92I,1.9 µM,2 of 3

The closing 5 entries, repeated:

| changes | Kd (apparent) | seen in |
|---|---|---|
| R28Q+S92G+F98C | 350 nM | 3 of 3 |
| Y29D+Q96F+F98S | 510 nM | 3 of 3 |
| E23P+N52S+S89M | 13 µM | 3 of 3 |
| R28E+K50G+S93F | 610 nM | 3 of 3 |
| Y29P+K50H+S92I | 1.9 µM | 2 of 3 |